In data set [1] the test system is S-180 sarcoma. The data set can be described thus: Transplanted S-180 sarcoma in mice, tumor inhibition. As to conditions: Table 16: Carboplatin 4 mg/kg i.p, Algal proteoglycan 20 mg/kg p.o, alone or combined, once a day for seven days. How it is done: Tumors, including B-16 melanoma and S-180 sarcoma, were provided by Shanghai Institute of Materia Medica of the Chinese Academy of Sciences.
The tumor tissue was made into cell suspension. The mice were inoculated subcutaneously in the right axilla with the cell suspension, about 4.5-5×10^6 cells/mouse. After 24 hours, the mice were randomly divided into different groups and housed in separate cages (n=6). […] The administration began on the second day and lasted for seven days, with different doses. The blank control group was given normal saline (NS). The animals were sacrificed and weighed (g body weight) 24 hours after drug withdrawal. The tumors were excised and weighed. The average tumor weight was calculated for each group. According to the following formula, the tumor inhibition rate was calculated and T test was conducted.
According to the formula below, the tumor inhibition rate was calculated and T test was conducted.
(§1) A=average tumor weight (g) of blank control group,
B=average tumor weight (g) of therapeutic group

In data set [2] the test system is B16 melanoma. Put plainly: Transplanted B16 melanoma in mice, tumor inhibition. Format: in vivo, C57 mice. The note with it: Table 13: Carboplatin 4 mg/kg i.p, Algal proteoglycan 60 mg/kg p.o, alone or combined, once a day for seven days. As for the experimental part: Female C57 mice (18-22 g) and well-grown B16 melanoma on 7-11 days were used. The tumor tissue was made into cell suspension. […] Algal proteoglycan extract was administered orally, and carboplatin, doxorubicin or CTX were administered intraperitoneally, once a day. […] The blank control group was given normal saline (NS). […] The tumors were excised and weighed. The average tumor weight was calculated for each group.
as §1
B =average tumor weight (g) of therapeutic group

Take `N.N.O=C([O-])C1(C(=O)[O-])CCC1.[Pt+2]` [Carboplatin]: the “Body Weight (g) in the Beginning” value in data set [1] came out at 18.6 g. In data set [2], the “Body Weight (g) in the End” value was determined as 23.2 g.
